Among the data in US20260306460A1, “COMPOSITION FOR REMOVING AND INHIBITING SENESCENT CELLS, AND USES THEREOF” (LIFECEUTIX CO., LTD., priority 2023, published 2026) are HMGN1 values, retold here.

The test system of experiment [1] is HMGN1 secreted from senescent A549 cells. Description: HMGN1 secretion (ELISA) from senescent A549 cells, Example 18, Table 14. The format is cell-based, human. The conditions noted are these: doxorubicin-senescent A549, without test compound (DMSO) = 100%; 30 μM (LX-5211, LX-5433, LX-6530, LX-6800, LX-9105, LX-9118, LX-9131, LX-9136, LX-9302, LX-9321, LX-9565, LX-9602 at 90 μM; LX-9336 at 2.4 mM).

Experiment [2] relates to HMGN1 secreted from senescent cells. Description: HMGN1 secretion (ELISA) from doxorubicin-induced senescent cells, Example 17. The format is cell-based, human. The conditions noted are these: senescent untreated = 100%; 30 μM; 90 μM for LX-5211, 5433, 6530, 9105, 9118, 9321, 9602; 2.4 mM for LX-9336.

In experiment [1], Mirvetuximab [LX-7622] returned an HMGN1 of 281%.

B1: Evolocumab (antibody, chains of the INN, looked up, V domains shown)
VH: EVQLVQSGAEVKKPGASVKVSCKASGYTLTSYGISWVRQAPGQGLEWMGWVSFYNGNTNYAQKLQGRGTMTTDPSTSTAYMELRSLRSDDTAVYYCARGYGMDVWGQGTTVTVSS
VL: ESALTQPASVSGSPGQSITISCTGTSSDVGGYNSVSWYQQHPGKAPKLMIYEVSNRPSGVSNRFSGSKSGNTASLTISGLQAEDEADYYCNSYTSTSMVFGGGTKLTVL
notes: CAS 1256937-27-5
B1 registered an HMGN1 in experiment [2] of 281%.
